Measured values taken from the RepoRT retention time repository (doi:10.1021/acs.analchem.2c02893).

Columns and labels:
Settings in all cases: stereoisomer not certain
[1] = RP, Thermo Scientific Acclaim RSLC 120 C18, 100 × 2.1 mm, 2.2 µm, 30 °C, 0.2 mL/min, estimated dead time 1.1 min; A: 90% water + 10% methanol + 0.01% formic acid + 5 mM ammonium formate, pH 3.61; B: methanol + 0.01% formic acid + 5 mM ammonium formate, pH 3.61; gradient (min/%B) 0/1 1/1 2/39 13/99.9 15/99.9 15.1/1 20.1/1
[2] = RP, Waters ACQUITY UPLC BEH C18, 100 × 2.1 mm, 1.7 µm, 35 °C, 0.35 mL/min, estimated dead time 0.63 min; A: water + 0.01% formic acid + 5 mM ammonium formate, pH 3.71; B: acetonitrile + 0.01% formic acid, pH 3.71; gradient (min/%B) 0/5 0.5/5 16/95 16.1/99 19/99 19.1/5 21/5
[3] = RP, Waters ACQUITY UPLC BEH C18, 100 × 2.1 mm, 1.7 µm, 30 °C, 0.35 mL/min, estimated dead time 0.63 min; A: water + 0.01% formic acid + 5 mM ammonium formate, pH 3.71; B: acetonitrile + 0.01% formic acid, pH 3.71; gradient (min/%B) 0/10 3/10 22/100 30/100 30.1/10 40/10
[4] = RP, Thermo Scientific Acclaim RSLC 120 C18, 100 × 2.1 mm, 2.2 µm, 30 °C, 0.2 mL/min, estimated dead time 1.1 min; A: water + 0.1% formic acid, pH 2.6; B: methanol + 0.1% formic acid, pH 2.6; gradient (min/%B) 0/10 4/50 17/95 25/95 25.1/10 30/10

LC retention time [2] | LC retention time [3] | LC retention time [4] | SMILES | LC retention time [1]
 |  |  | Clc1ccccc1N1CCNCC1 [Piperazine-o-Chlorophenyl] | 5.08 min
 |  |  | CCOP(=S)(OCC)Oc1ncn(-c2ccccc2)n1 [Triazophos] | 9.9 min
1.56 min | 1.16 min | 3.14 min | OCCOCCOCCOCCO [Tetraethylene glycol] | 
